Compounds with a hit are over-represented: about 2.2% of the library has one in this group of screens.
Nrf2 inh – Nrf2 pathway inhibition | A549 ARE-Fluc reporter, luciferase luminescence, 18-24 h | Potency, µM (top dose mostly 46 µM), without a hit: at the top dose activity change, negative = inhibition, most hits filed as inhibitors | actives 2.1% (n = 360,000); also: potency is read from the fitted curve at half-maximal effect; % is scaled to controls: 0 for no effect and ±100 for the full control effect; nearly all actives have a fitted effect of over 60% in size
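Two sequential reads on A549 ARE_Fluc cells exposed to compound for 18-24 h: a CellTiter-Fluor fluorescence read for viability, then a luciferase luminescence read for Nrf2/ARE activity.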
miR-21 FLuc – miR-21 reporter, rising signal; HeLa miR-21 FLuc reporter, luciferase, 48 h; Potency, µM (titrated, usually from 38.3 µM), without a hit: top-dose reporter change, positive = more light; AID 2288; 340,000 tested, under 10 active; active = well fitted rising curve with a large enough effect; inconclusive = small, poorly fitted or top-dose-only effect; inactive = no such curve, though single readings can be large or run the other way;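 further: % of control where 0% means no effect; miR-21 action dims this reporter so a rising signal means less miR-21 action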
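HeLa cells endogenously expressing miR-21, stably carrying CMV-driven firefly luciferase with a downstream miR-21 binding site, 2000 cells/well. Titrations up to approximately 40 uM, 48 hours; luciferase luminescence read.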
Nrf2 activator – activates Nrf2 signaling | Potency, µM (highest dose often 46.1 µM), without a hit: top-dose activation, usual class: activators | AID 624171 | actives 0.31% (n = 410,000) | AREc32 ARE-luciferase reporter (MCF7-derived line), luminescence, 24 h; also: potency is read from the fitted curve at half-maximal effect; % of control where 0% means no effect; nearly all actives have a fitted effect of over 65% in size
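Cells of the AREc32 ARE-luciferase line are plated in OPTI-MEM containing 5% FBS and left overnight at 37 deg C. Compounds are pinned in, incubation continues 24 hr, and firefly luciferase signal is then measured.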
B2AR arrestin – agonists driving beta-arrestin recruitment to human beta2-adrenergic receptor. Potency, µM (doses to about 46.1 µM), for the others: at the top dose activation, most hits filed as activators. actives 0.02% (n = 330,000). beta-arrestin recruitment to beta2AR, cell-based reporter. P07550. AID 492947;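 also: potency is read from the fitted curve at half-maximal effect; 0% = DMSO controls and full agonism = EC100 isoproterenol or metaproterenol; nearly all actives have a fitted effect of over 65% in size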
A549 viability – counter-screen for Nrf2 inhibitors: cytotoxicity in A549 cells. A549 ARE-Fluc cells, CellTiter-Fluor viability, 18-24 h. AID 504648. actives 0.16% (n = 390,000). Potency, µM (titrated, usually from 46 µM), without a hit: at the highest dose activity change, negative = cytotoxicity, most hits filed as inhibitors; also: potency is read from the fitted curve at half-maximal effect; % is scaled to controls: 0 for no effect and ±100 for the full control effect
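Cytotoxicity counterscreen: CellTiter-Fluor fluorescence was measured in A549 ARE_Fluc cells after 18-24 h of compound exposure in a concentration series. The subsequent BugLite luminescent read reports ARE-luciferase activity.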
* hit, by the source's call; ? = inconclusive; · = no result; ! = a repeat was not active; [ ] = another dose, or the depositor's remark. Unless noted, calls follow the shape of the dose curve; as a rule, active = well fitted curve in the direction sought with a large enough effect; inconclusive = small, poorly fitted or top-dose-only effect, or another doubt; inactive = no such curve, though single readings can be large; an effect the other way counts as inactive or inconclusive.

Abbreviations: A = Nrf2 inh; B = miR-21 FLuc; C = Nrf2 activator; D = B2AR arrestin; E = A549 viability
Cc1cc(NC(=O)Nc2cc(Cl)sc2Cl)no1
  A: -24% | B: -22% | C: 3.2µM* | D: 0% | E: 2%

COc1cc(NC(=O)Cn2nc(-c3ccc(F)cc3)ccc2=O)ccc1-n1cnnn1
  A: 26µM* | B: -3% | C: 2% | D: 0% | E: ?

CCOC(=O)c1c(NC(=O)c2cc(-c3ccc(OC)cc3)on2)sc(C)c1C
  A: 9% | B: -2% | C: 0% | D: · | E: 4%

CC(C)(C)SCCNC(=O)/C=C/c1cccc([N+](=O)[O-])c1
  A: 29% | B: -46% | C: 10µM* | D: -2% | E: 24%

Fc1ccc2nncc(SCc3ccccc3Cl)c2c1
  A: 5% | B: · | C: 5.6µM* | D: · | E: 13%

COc1ccccc1-n1cnc2c(c1=O)c1nc3ccccc3nc1n2-c1ccc(C)c(C)c1
  A: 5.8µM* | B: -1% | C: 0% | D: 0% | E: ?

Cc1nc(-c2cccc(NC(=O)c3ccco3)c2)cs1
  A: 10% | B: -19% | C: ? | D: 0% | E: 1%

Cc1nc(-c2ccc(NC(=O)c3ccco3)cc2)cs1
  A: 7.3µM* | B: 26% | C: -3% | D: 0% | E: 3%

COc1ccc(NC(=O)c2ccc(-c3csc(C)n3)cc2)cc1
  A: 21µM* | B: -27% | C: 0% | D: 1% | E: -18%

Cc1nc(-c2cccc(NC(=O)c3ccc(-n4cccn4)cc3)c2)cs1
  A: 15µM* | B: · | C: 1% | D: 0% | E: -7%

Cc1ccc(CNC(=O)CCS(=O)(=O)c2cc3c(cc2Cl)NC(=O)CO3)cc1
  A: 26µM*! | B: -2% | C: 0% | D: 0% | E: -7%

Cc1ccc(C)c(NS(=O)(=O)c2cc3c(cc2Cl)NC(=O)CO3)c1
  A: 23µM* | B: 2% | C: -1% | D: · | E: ?

Cc1ccc(N2CCN(C(=O)CCS(=O)(=O)c3cc4c(cc3Cl)NC(=O)CO4)CC2)c(C)c1
  A: 26µM* | B: 21% | C: 0% | D: · | E: -16%

Cc1ccc(Cl)cc1N1CCN(C(=O)CCS(=O)(=O)c2ccc3c(c2)NC(=O)CO3)CC1
  A: 16µM* | B: ? | C: -1% | D: 0% | E: -14%

COc1cc(OC)c(NS(=O)(=O)c2cc3c(cc2C)NC(=O)CO3)cc1Cl
  A: 1% | B: 0% | C: 0% | D: · | E: -7%

O=C1COc2cc(S(=O)(=O)CCC(=O)N3CCN(c4ccccc4F)CC3)c(Cl)cc2N1
  A: -14% | B: -11% | C: -1% | D: · | E: 3%

Cc1cc2c(s1)c1cnn(Cc3ccc(SC(F)(F)F)cc3)c(=O)c1n2C
  A: 5% | B: · | C: · | D: · | E: -1%

CC1Cc2cc(S(=O)(=O)NCc3ccc(N(C)C)cc3)ccc2N1C(=O)C1CCC1 (centres undefined)
  A: 23µM* | B: 20% | C: 5% | D: · | E: -2%

COc1ccc(CNS(=O)(=O)c2ccc3c(c2)CC(C)N3C(=O)C2CC2)cc1 (centres undefined)
  A: ? | B: 19% | C: 0% | D: 0% | E: -11%

CC1Cc2cc(S(=O)(=O)NCc3ccccc3Cl)ccc2N1C(=O)C1CCC1 (centres undefined)
  A: 26µM* | B: 15% | C: 0% | D: · | E: -14%

Cc1nn(-c2ccccc2)c(C)c1C(=O)OC(C)C(=O)NC1CCCCC1 (centres undefined)
  A: 18µM* | B: · | C: 1% | D: 6% | E: -21%

CCOc1ccc(CCNC(=O)c2cc3sc(CC)cc3n2C)cc1OCC
  A: 18µM* | B: 8% | C: 1% | D: · | E: 0%

CCOc1ccc(CCNC(=O)c2cc3c(-c4ccccc4F)nn(C)c3s2)cc1OCC
  A: 18µM* | B: ? | C: 1% | D: · | E: -7%

CCOc1ccc(CCNC(=O)c2cc3sccc3n2CC)cc1OCC
  A: ? | B: ? | C: 1% | D: · | E: 3%

COc1ccc(NC(=S)N2CCC(Cc3ccccc3)CC2)cc1
  A: -28% | B: 0% | C: -1% | D: 1% | E: 2%

S=C(Nc1ccccc1)N1CCC(Cc2ccccc2)CC1
  A: 16µM* | B: 12% | C: 0% | D: 0% | E: -16%

COc1ccc(CCCc2nnc(SCC(=O)Nc3ccc(Cl)cc3)o2)cc1
  A: 21µM* | B: 0% | C: 5% | D: · | E: 0%

Cc1nc2nc(-c3ccco3)[nH]n2c(=O)c1C
  A: · | B: 1% | C: 11µM* | D: 0% | E: 13%

Oc1c(C(c2ccccc2Cl)N2CCN(Cc3ccccc3)CC2)sc2nc(-c3ccco3)nn12 (centres undefined)
  A: · | B: 7% | C: 4% | D: · | E: -10%

Cc1cc2c(s1)c1cnn(Cc3ccc(F)c(F)c3F)c(=O)c1n2C
  A: -4% | B: · | C: · | D: · | E: 2%

CC(=O)OCCCNc1cc(SCc2ccco2)c2nonc2c1[N+](=O)[O-]
  A: -2% | B: 23% | C: ? | D: 12% | E: 16µM*

O=C(Nc1ccc2nc(-c3cccs3)c(-c3cccs3)nc2c1)N1CCCCC1
  A: 18% | B: · | C: · | D: · | E: 14%

CN(C(=O)c1ccco1)c1nnc(-c2ccc(F)cc2)s1
  A: 3% | B: -39% | C: 7.1µM* | D: 0% | E: 0%

Oc1ccccc1-c1cc(C(F)(F)C(F)F)nc(-c2ccccc2)n1
  A: ? | B: -4% | C: 0% | D: -1% | E: -17%

O=[N+]([O-])c1ccc(O)c(-c2cc(C(F)(F)F)nc(-c3ccccc3)n2)c1
  A: ? | B: ? | C: -1% | D: -1% | E: 8.2µM*

Cc1cc2c(s1)c1cnn(Cc3ccc(C)c(F)c3)c(=O)c1n2C
  A: 3% | B: · | C: · | D: · | E: 0%

O=C(Nn1c(C2CCCCC2)nc2ccccc2c1=O)c1ccc([N+](=O)[O-])cc1
  A: 23µM* | B: 6% | C: 4% | D: 0% | E: ?

COc1cccc(OC)c1C(=O)Nn1c(C2CCC2)nc2ccccc2c1=O
  A: · | B: 3% | C: 0% | D: -1% | E: -3%

CCc1ccc(NC(=O)CSC2=Nc3ccccc3C3=NC(CCC(=O)NCc4cccs4)C(=O)N23)cc1 (centres undefined)
  A: · | B: 12% | C: 3% | D: · | E: -8%

Cc1nc2sc(C(N)=O)c(N)c2c(-c2ccc(Br)cc2)c1C(=O)Nc1ccc(Cl)cc1
  A: 7%[9.27 µM] | B: ? | C: -4% | D: · | E: 1%

O=S(=O)(c1ccc(SCCOc2ccc(Br)cc2)nc1)N1CCCC1
  A: 16µM* | B: · | C: 1% | D: 0% | E: 3%

CC(C)N(C(=O)CSc1ccc(S(=O)(=O)N2CCCCC2)cn1)c1ccccc1
  A: 9.2µM* | B: · | C: 0% | D: 0% | E: -1%

CCOc1ccc(OCCSc2ccc(S(=O)(=O)N3CCN(C)CC3)cn2)cc1
  A: ? | B: · | C: 4% | D: 0% | E: -2%

O=S(=O)(c1ccc(SCCOc2ccc(Cl)cc2)nc1)N1CCCC1
  A: 18µM* | B: · | C: 0% | D: 0% | E: -7%

O=S(=O)(c1ccc(Oc2ccc(Br)cc2F)nc1)N1CCCCC1
  A: 16µM* | B: 4% | C: 0% | D: 0% | E: -15%

Full records, quoted from the list. Order of values: Nrf2 inh	miR-21 FLuc	Nrf2 activator	B2AR arrestin	A549 viability
`CC(C)(C)SCCNC(=O)/C=C/c1cccc([N+](=O)[O-])c1` reads 29%	-46%	10µM*	-2%	24%
`COc1ccc(NC(=S)N2CCC(Cc3ccccc3)CC2)cc1` reads -28%	0%	-1%	1%	2%
`O=C1COc2cc(S(=O)(=O)CCC(=O)N3CCN(c4ccccc4F)CC3)c(Cl)cc2N1` reads -14%	-11%	-1%	·	3%
`COc1cc(NC(=O)Cn2nc(-c3ccc(F)cc3)ccc2=O)ccc1-n1cnnn1` reads 26µM*	-3%	2%	0%	?

Additional compounds follow.
Abbreviations: A = Nrf2 inh; B = miR-21 FLuc; C = Nrf2 activator; D = B2AR arrestin; E = A549 viability
O=S(=O)(c1ccc(SCc2ccc(Cl)cc2)nc1)N1CCCC1
  A: ? | B: · | C: 1% | D: 0% | E: 4%

COc1cccc(NC(=O)C(=O)NCC(c2cccnc2)N2CCN(c3ccccc3)CC2)c1 (centres undefined)
  A: ? | B: 3% | C: 5% | D: · | E: 3%

CCN(C(=O)C1CCCN(S(=O)(=O)c2c(C)noc2/C=C/N(C)C)C1)c1cccc(C)c1 (centres undefined)
  A: -14% | B: 8% | C: -1% | D: · | E: 0%

O=C(CSc1nc(=O)n(Cc2ccco2)c2c1CCC2)Nc1cccc(F)c1
  A: · | B: 0% | C: 6% | D: · | E: -3%

Cc1cc(C(=O)COc2cccc([N+](=O)[O-])c2)c(C)n1C1CC1
  A: -7% | B: · | C: 5% | D: 0% | E: 2%
